These are literature values, as cited in patent publication US11291683B2, “Bilayer tablets of B vitamins and process for preparing the same” (Access Business Group International LLC, priority 2016, dated 2022).

The conditions of the data set: cited from earlier work.

With “Thiamine Mononitrate [Thiamine (B1) mononitrate]”, the “Solubility in Water (Per 100 ml water)” value is on record as 2.7 g per 100 ml water.
